Experimental data taken from PubChem BioAssay AID1209 (Sanford-Burnham Center for Chemical Genomics, 2008).
Only a part is listed here, and it is no random draw. Activity calls are given as the source filed them. Rule as the data show it: active = inhibition above about 50%; inactive = the rest.

The chains behind the UniProt entries cited, without tags or fusion partners. Where a name states a change or a piece, a line headed by the entry shows the natural chain unless it says otherwise.
UniProt P34949: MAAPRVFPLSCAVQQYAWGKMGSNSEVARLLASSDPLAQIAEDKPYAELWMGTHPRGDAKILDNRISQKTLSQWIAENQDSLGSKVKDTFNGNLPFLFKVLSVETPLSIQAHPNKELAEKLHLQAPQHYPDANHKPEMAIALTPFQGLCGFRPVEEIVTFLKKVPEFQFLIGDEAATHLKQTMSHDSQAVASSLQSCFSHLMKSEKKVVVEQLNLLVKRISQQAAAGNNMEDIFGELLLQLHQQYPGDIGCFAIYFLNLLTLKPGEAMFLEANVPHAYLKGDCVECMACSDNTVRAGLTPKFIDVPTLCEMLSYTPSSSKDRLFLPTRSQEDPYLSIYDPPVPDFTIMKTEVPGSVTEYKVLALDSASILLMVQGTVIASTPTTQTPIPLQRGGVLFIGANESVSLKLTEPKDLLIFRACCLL

Molecular target: Mannose-6-phosphate isomerase (Homo sapiens) (UniProt P34949)
Assay: inhibitors of human PMI, primary screen, biochemical, fluorescence intensity, coupled assay (AID 1209);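 also: plate controls were DMSO vehicle for no effect and wells lacking substrate for full effect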
Settings: purified PMI enzyme, at 20 µM, active compounds read high

Row | Structure (SMILES) | inhibition
1 | CCC(C)N(CC(C)C)C(=S)SC(NC(C)=O)C(Cl)(Cl)Cl (stereo not drawn) | inactive: -15.2%
2 | O=C(COc1ccccc1)OC1CN2CCC1CC2 (stereo not drawn) | inactive: 0.4%
3 | COP1(=S)c2c(C)nn(CCC#N)c2N=C(c2ccc(F)cc2)N1C (stereo not drawn) | inactive: -1.7%
4 | O=P(Nc1ccccn1)(c1cccc2ccccc12)c1cccc2ccccc12 | inactive: 10%
5 | Cc1cc(SC(NC=O)C(Cl)(Cl)Cl)ncn1 (stereo not drawn) | inactive: -16.6%
6 | Cc1cc(SC(NC(=O)c2ccccc2)C(Cl)(Cl)Cl)nc(C(C)C)n1 (stereo not drawn) | inactive: 1.5%
7 | O=[N+]([O-])c1cc([N+](=O)[O-])c(-c2ccn[nH]2)s1 | inactive: 5.9%
8 | CC(C)NC(=O)NP(=O)(Oc1ccccc1)Oc1ccccc1 | inactive: 7.9%
9 | CCN(CC)C(=S)SC(NC=O)C(Cl)(Cl)Cl (stereo not drawn) | inactive: 3.8%
10 | ClCCSc1nnc(-c2cccnc2)o1 | inactive: 10.5%
11 | Cc1ccc2nc3c(c(C)c2c1)CC(C(Cl)Cl)S3 (stereo not drawn) | inactive: 1.7%
12 | COc1ccc(N/C(=N/P(=O)(N2CCOCC2)N2CCOCC2)N2CCOCC2)cc1 | inactive: -1.1%
13 | COc1ccc2nc(NP(=O)(c3ccccc3)c3ccccc3)sc2c1 | inactive: -2.2%
14 | Cc1c2c(nc3ccccc13)SC(C(Cl)Cl)C2 (stereo not drawn) | inactive: 9.8%
15 | Cc1cc(=O)[nH]c(N[N+](=O)[O-])n1 | inactive: -3.4%
16 | O=C(OC1CN2CCC1CC2)C12CC3CC(CC(C3)C1)C2 (stereo not drawn) | inactive: -10.4%
17 | CCOP(=O)(Nc1cccc2ccccc12)OCC | inactive: 8.1%
18 | COc1cc(C2NCCC3(OCCO3)C2(C)C)cc(OC)c1OC (stereo not drawn) | inactive: -4.9%
19 | Cc1ccc(NCCc2c([N+](=O)[O-])cc([N+](=O)[O-])cc2[N+](=O)[O-])cc1 | inactive: -2.5%
20 | Cc1cccc(OCC(=O)OC2CN3CCC2CC3)c1 (stereo not drawn) | inactive: 4.9%
21 | COc1cc(C(=O)NCC2(N3CCOCC3)CCCCC2)cc(Cl)c1OC(C)C | inactive: -4.7%
22 | CCOP1(=S)c2c(C)nn(CCC#N)c2N=C(c2ccc(F)cc2)N1C (stereo not drawn) | inactive: -2.7%
23 | O=[N+]([O-])c1ccc2c(c1)nnn2O | inactive: -3%
24 | O=P(Nc1nccs1)(Oc1ccccc1)Oc1ccccc1 | inactive: -2.5%
25 | O=P(Nc1nccs1)(c1ccccc1)c1nc2ccccc2s1 (stereo not drawn) | active: 107%
26 | CCOP1(=S)c2c(C)nn(CCC#N)c2N=C(c2ccccc2F)N1C (stereo not drawn) | inactive: 6.5%

Row | Structure (SMILES) | inhibition
27 | Cc1ccc(OCC(=O)OC2CN3CCC2CC3)cc1 (stereo not drawn) | inactive: 6.7%
28 | O=P1(Nc2ccc(Br)cn2)COc2ccccc2OC1 | inactive: 1.4%
29 | O=P1(Nc2ncccn2)COc2ccccc2OC1 | inactive: -9%
30 | CN(C)C1(CNC(=O)c2ccc(S(C)(=O)=O)cc2)CCCCC1 | inactive: 11%
31 | CC1CCC(C(C)C)C(OP(=O)(Nc2ccccn2)c2ccccc2)C1 (stereo not drawn) | inactive: -12.6%
32 | Cc1nn(-c2ccccc2)c2c1P(=O)(N1CCOCC1)N(C)C(c1ccccc1)=N2 (stereo not drawn) | inactive: 11.7%
33 | CC(C)/C=N\N=C(\N)N[N+](=O)[O-] | inactive: -17.6%
34 | CN(C(=O)Cc1ccc(Cl)c(Cl)c1)[C@@H]1CCCC[C@H]1N1CCCC1 | inactive: -0.8%
35 | Clc1n[nH]nc1-c1nn[nH][15n]1 | inactive: 5.4%
36 | O=P1(Nc2ccccn2)COc2ccccc2OC1 | inactive: 9.7%
37 | c1nnnn1CCn1cnnn1 | inactive: 10.8%
38 | CC(C)C(=O)NC(Sc1ccccc1)C(Cl)(Cl)Cl (stereo not drawn) | inactive: 3.8%
39 | O=P(Nc1nccs1)(c1ccccc1)c1ccccc1 | inactive: -2.4%
40 | O=C(OC1CN2CCC1CC2)c1cccc(Cl)c1 (stereo not drawn) | inactive: 12.7%
41 | C(Cc1nn[nH]n1)Cc1nn[nH]n1 | inactive: 32.6%
42 | CC(=O)NC(SC(=S)N(C)C)C(Cl)(Cl)Cl (stereo not drawn) | inactive: 0.1%
43 | O=P(Nc1ccccn1)(c1ccc(Br)cc1)c1ccc(Br)cc1 | inactive: -1.9%
44 | O=c1c2cc([N+](=O)[O-])ccc2[nH]c2c([N+](=O)[O-])cc([N+](=O)[O-])cc12 | inactive: 4%
45 | CCC(=O)N1C2C3N(C(=O)CC)C1C1N(C(=O)CC)C(C(N1C(=O)CC)N3C(=O)CC)N2C(=O)CC | inactive: -7.5%
46 | CC(=O)NC(SC(=S)N(CC(C)C)CC(C)C)C(Cl)(Cl)Cl (stereo not drawn) | inactive: -7.2%
47 | Cc1ccc(OP(=O)(Nc2ccccn2)Oc2ccc(C)cc2)cc1 | inactive: 8.7%
48 | COC(=O)c1cc2c(s1)N=C(c1ccccc1)N(C)P2(=O)N1CCOCC1 (stereo not drawn) | inactive: 0.7%
49 | CCOC(=O)NC(Sc1ccccc1)C(Cl)(Cl)Cl (stereo not drawn) | inactive: 1.3%
50 | c1ccc(-c2nn[nH]n2)c(-c2nn[nH]n2)c1 | inactive: -18.9%
51 | CCNC(=S)/N=C(\N)N[N+](=O)[O-] | inactive: -3.4%
52 | O=C(NC1CCS(=O)(=O)C1)NP(=S)(Oc1ccccc1)Oc1ccccc1 (stereo not drawn) | inactive: 15.5%

Row | Structure (SMILES) | inhibition
53 | CC(=O)Nc1ccc(Oc2c([N+](=O)[O-])cc([N+](=O)[O-])cc2[N+](=O)[O-])cc1 | inactive: -15.6%
54 | CC(C)(C)C(=O)NC(Sc1ccccc1)C(Cl)(Cl)Cl (stereo not drawn) | inactive: 2.2%
55 | CCOc1ccc(C2=NCC(CBr)S2)cc1 (stereo not drawn) | inactive: 2.1%
56 | O=P1(Nc2nc3ccc(Cl)cc3s2)COc2ccccc2O1 (stereo not drawn) | inactive: 16.4%
57 | O=C(NC(Sc1ccncn1)C(Cl)(Cl)Cl)c1ccccc1 (stereo not drawn) | inactive: 1.1%
58 | Cc1c2non([O-])c-2c(C)[n+](=O)[n+]1[O-] | inactive: 37.4%
59 | Oc1ccccc1CNc1ccccn1 | inactive: 3.7%
60 | CC(C)CC(=O)NC(Sc1ccc(Cl)cc1)C(Cl)(Cl)Cl (stereo not drawn) | inactive: -5.1%
61 | CN1CCCC(OC(=O)C(c2ccccc2)c2ccccc2)C1 (stereo not drawn) | inactive: -8.2%
62 | Clc1ccc(Cl)c(NC2=NCC(CBr)S2)c1 (stereo not drawn) | inactive: -25.6%
63 | COc1ccccc1OP(=O)(Nc1ccc(C)cn1)Oc1ccccc1OC | inactive: -0.6%
64 | Cc1ccc(N/C(=N/P(=O)(N2CCOCC2)N2CCOCC2)N2CCOCC2)cc1 | inactive: -0.9%
65 | NC(=O)c1cc([N+](=O)[O-])cc([N+](=O)[O-])c1N | inactive: -5.6%
66 | CCN(N=Nc1nonc1N)c1nonc1N | inactive: 15%
67 | Cc1cc(SC(NC(=O)c2ccc(F)cc2)C(Cl)(Cl)Cl)ncn1 (stereo not drawn) | inactive: -14.2%
68 | CCOP(=O)(Nc1ccccc1)OCC | inactive: -1.4%
69 | O=[N+]([O-])c1ncn(CCn2ncnc2[N+](=O)[O-])n1 | inactive: -9.4%
70 | CC1CCN(C(=O)Oc2c(Cl)cc(Cl)c3cccnc23)CC1 | inactive: 0.9%
71 | CN(C)C(=O)OCCc1n(C)cc[n+]1C | inactive: 2%
72 | CC(C)=N/N=C(\N)N[N+](=O)[O-] | inactive: -9.3%
73 | CCN(/C(=N/P(=O)(N1CCOCC1)N1CCOCC1)N1CCOCC1)c1ccc(OC)cc1 | inactive: -4.7%
74 | O=[N+]([O-])c1cc([N+](=O)[O-])c(CCNc2ccccc2)c([N+](=O)[O-])c1 | inactive: -23.9%
75 | Cc1ccc(NP(=O)(Oc2ccccc2)Oc2ccccc2)nc1 | inactive: 3.3%
76 | O=[N+]([O-])c1cccc2n[nH]nc12 | inactive: -5.9%
77 | CC(=O)N1C2C3N(C(C)=O)C1C1N(C(C)=O)C(C(N1C(C)=O)N3C(C)=O)N2C(C)=O | inactive: 0.6%
78 | COc1ccc(C2=NCC(CBr)S2)cc1 (stereo not drawn) | inactive: 5.2%
